# According to PubChem BioAssay AID602332 (National Center for Advancing Translational Sciences (NCATS), 2012):
# Only a part is listed here, and it is no random draw. Some structures show a salt or complex split into parts, the way the source records it. Active and inactive are the calls of the source. Calls follow the shape of the dose curve; as a rule, active = well fitted activation curve with a large enough effect; inconclusive = small, poorly fitted or top-dose-only effect; inactive = no such curve, though single readings can be large or run the other way.
# Assay: qHTS for Inducers of the Endoplasmic Reticulum Stress Response (ERSR) in Human Glioma: qHTS; also: % of control where 0% means no effect; nearly all actives have a fitted effect of over 35% in size
# Settings: U87-MG GRP78 promoter luciferase reporter, 16 h; stronger effect = higher value
row,SMILES,activation
1,O=c1[nH]c2ccccc2n1C1CCN(C(c2ccccc2)c2nnnn2C2CCCCC2)CC1 (stereo unspecified),inactive: -3.91%
2,O=c1[nH]c2ccccc2n1C1CCN(C(c2cccc3ccccc23)c2nnnn2C2CCCC2)CC1 (stereo unspecified),inactive: -2.51%
3,CCOC(=O)N1CCC(Nc2cccc(C)c2)CC1,inactive: -0.0685%
4,COc1cc(C(=O)NCC2(N(C)C)CCCCC2)ccc1OC(F)F,inactive: -9.8%
5,CCOc1ccc(C)cc1CN(CCCl)CCCl,inactive: -0.35%
6,O=C1CCN(Cc2ccccc2)CC1,inactive: -2.13%
7,O=C(NCC1(N2CCOCC2)CCCCC1)c1ccc(Cl)cc1,inactive: -5.03%
8,CC(C)(C)n1nnnc1C(c1ccccc1)N1CCC(n2c(=O)[nH]c3ccccc32)CC1 (stereo unspecified),inactive: -2.71%
9,CCOC(=O)N1CCC(Nc2ccc(F)cc2)CC1,inactive: -2.85%
10,COc1ccc(NC2CCN(CCc3ccccc3)CC2)c(OC)c1,inactive: -3.37%
11,CCCCOc1ccc(C(=O)NCC2(N3CCOCC3)CCCCC2)cc1,inactive: -1.92%
12,CCCCn1nnnc1C(c1cc2ccccc2o1)N1CCC(n2c(=O)[nH]c3ccccc32)CC1 (stereo unspecified),inactive: -9.1%
13,O=P1(N(CCCl)CCCl)SCCCS1,inactive: -2.87%
14,O=C(NCC1(N2CCCCC2)CCCCC1)c1ccc(F)cc1,inactive: -0.995%
15,COc1ccccc1C(=O)NCC1(N2CCOCC2)CCCCC1,inactive: -2.55%
16,O=C(NCC1(N2CCOCC2)CCCCC1)c1cc2ccccc2o1,inactive: -0.188%
17,Cc1cc(C)cc(N(C(=O)c2ccccc2)C2CCN(C(=O)OC(C)(C)C)CC2)c1,inactive: -3.25%
18,O=C(NCC1(N2CCCCC2)CCCCC1)c1ccc(Cl)nc1,inactive: -0.912%
19,O=c1[nH]c2ccccc2n1C1CCN(C(c2ccccc2OC(F)(F)F)c2nnnn2C2CCCCC2)CC1 (stereo unspecified),inactive: -3.99%
20,CCCCn1nnnc1C(c1ccc(OC)cc1)N1CCC(n2c(=O)[nH]c3ccccc32)CC1 (stereo unspecified),inactive: -1.69%
21,CCOC(=O)N1CCC(Nc2ccc(OC)cc2)CC1,inactive: 0.542%
22,COc1ccc(Cl)cc1C(=O)NCC1(N2CCOCC2)CCCCC1,inactive: -3.31%
23,O=C1C(O)=C([N+](=O)[O-])C(=O)C(O)=C1[N+](=O)[O-],inactive: -5.27%

row,SMILES,activation
1,O=C(NCC1(N2CCCCC2)CCCCC1)c1ccc(Cl)s1,inactive: -3.72%
2,N#CC1(Nc2ccccc2)CCN(Cc2ccccc2)CC1,inactive: -3.65%
3,O=c1[nH]c2ccccc2n1C1CCN(C(c2cc3ccccc3o2)c2nnnn2C2CCCCC2)CC1 (stereo unspecified),inactive: -3.83%
4,O=C(OC1CN2CCC1CC2)C1c2ccccc2Oc2ccccc21 (stereo unspecified),inactive: -1.17%
5,O=C(NCC1(N2CCCCC2)CCCCC1)c1cccs1,inactive: -5.15%
6,CCCCn1nnnc1C(CC)N1CCC(n2c(=O)[nH]c3ccccc32)CC1 (stereo unspecified),inactive: -3.68%
7,CCCCn1nnnc1C(c1cccs1)N1CCC(n2c(=O)[nH]c3ccccc32)CC1 (stereo unspecified),inactive: -2.13%
8,O=C(NCC1(N2CCCCC2)CCCCC1)c1ccc(=O)[nH]c1,inactive: -3.42%
9,CC(C)(C)OC(=O)N1CCC(N(C(=O)c2ccccc2)c2ccc(F)cc2)CC1,inactive: -2.76%
10,COc1ccc(C(=O)NCC2(N3CCCCC3)CCCCC2)c(OC)c1OC,inactive: -3.51%
11,CCC(c1nnnn1C1CCCC1)N1CCC(n2c(=O)[nH]c3ccccc32)CC1 (stereo unspecified),inactive: -2.73%
12,COc1ccc(C(=O)NCC2(N3CCCCC3)CCCCC2)cc1,inactive: -2.47%
13,Cc1cccc(NC2(C#N)CCN(Cc3ccccc3)CC2)c1,inactive: -3.52%
14,CSc1ccccc1C(=O)NCC1(N2CCCCC2)CCCCC1,inactive: -4.43%
15,CN1CCC(Nc2cccc(F)c2)CC1,inactive: -2.12%
16,COc1ccc2c(c1O)-c1c(O)c(OC)cc3c1[C@H](C2)[N+](C)(C)CC3.O=[N+]([O-])c1cc([N+](=O)[O-])c([O-])c([N+](=O)[O-])c1[O-],inactive: -1.7%
17,O=C(NCC1(N2CCCCC2)CCCCC1)c1cncc(Br)c1,inactive: -1.01%
18,O=C(OC1CN2CCC1CC2)c1ccc([N+](=O)[O-])cc1 (stereo unspecified),inactive: -0.912%
19,O=C(NCC1(N2CCOCC2)CCCCC1)c1ccccc1Br,inactive: 0.591%
20,CCCOc1ccc(C(=O)NCC2(N(C)C)CCCCC2)cc1OC,inactive: -0.136%
21,CCCCOc1ccccc1C(=O)NCC1(N2CCOCC2)CCCCC1,inactive: -3.75%
22,Cc1ccc(C(=O)NCC2(N(C)C)CCCCC2)o1,inactive: -2.53%
23,COc1ccc(C(c2nnnn2C2CCCC2)N2CCC(n3c(=O)[nH]c4ccccc43)CC2)cc1 (stereo unspecified),inactive: -2.65%

row,SMILES,activation
1,O=[N+]([O-])c1cc([N+](=O)[O-])c(Nc2ccc(Cl)cc2)c([N+](=O)[O-])c1,inactive: -9.94%
2,CN(C)c1cccc(C(=O)NCC2(N3CCCCC3)CCCCC2)c1,inactive: -2.88%
3,O=[N+]([O-])c1cc([N+](=O)[O-])c(OC2CCCCC2O)c([N+](=O)[O-])c1 (stereo unspecified),inactive: -3.67%
4,COc1ccc(CN(CCCl)CCCl)cc1Cl,inactive: -4.14%
5,CCCCn1nnnc1C(c1ccccc1OC(F)(F)F)N1CCC(n2c(=O)[nH]c3ccccc32)CC1 (stereo unspecified),inactive: -6.99%
6,CC(C)c1ccc(NC2CCN(C(=O)OC(C)(C)C)CC2)cc1,inactive: 7.1%
7,CCCCn1nnnc1C(c1ccnc2ccccc12)N1CCC(n2c(=O)[nH]c3ccccc32)CC1 (stereo unspecified),inactive: -2.98%
8,O=C(NCC1(N2CCOCC2)CCCCC1)c1cc(F)c(F)cc1Cl,inactive: -2.6%
9,CCC(c1nnnn1C(C)(C)C)N1CCC(n2c(=O)[nH]c3ccccc32)CC1 (stereo unspecified),inactive: -3.26%
10,COc1cc(OC)c(C(=O)NCC2(N(C)C)CCCCC2)cc1OC,inactive: 2.04%
11,O=C(NCC1(N2CCCCC2)CCCCC1)c1cccc(C(F)(F)F)c1,inactive: -3.65%
12,CCCOc1cccc(C(=O)NCC2(N3CCOCC3)CCCCC2)c1,inactive: -5.15%
13,O=[N+]([O-])c1cc([N+](=O)[O-])c(NCC2CCS(=O)(=O)C2)c([N+](=O)[O-])c1 (stereo unspecified),inactive: -7.84%
14,CC(C)c1ccc(C(=O)NCC2(N3CCOCC3)CCCCC2)cc1,inactive: -1.28%
15,COc1ccc(NC2CCN(C(=O)OC(C)(C)C)CC2)cc1,inactive: 3.91%
16,CN1CCN(CCOC(=O)C(O)(c2ccccc2)c2ccccc2)CC1,inactive: -0.987%
17,CCCCn1nnnc1C(c1cccc2ccccc12)N1CCC(n2c(=O)[nH]c3ccccc32)CC1 (stereo unspecified),inactive: 0.299%
18,O=C(NCC1(N2CCOCC2)CCCCC1)c1cc(=O)[nH]c2ccccc12,inactive: 4.91%
19,COc1cc(C(=O)NCC2(N3CCCCC3)CCCCC2)ccc1OC(F)F,inactive: -4.55%
20,O=C(NCC1(N2CCCCC2)CCCCC1)c1ccc(OC(F)F)cc1,inactive: -2.99%
21,CC(C)(C)n1nnnc1C(c1ccccc1OC(F)(F)F)N1CCC(n2c(=O)[nH]c3ccccc32)CC1 (stereo unspecified),inactive: -5.52%
22,O=C(NCC1(N2CCCCC2)CCCCC1)c1cccc([N+](=O)[O-])c1,inactive: -3.79%
23,CCOc1ccc(C(=O)NCC2(N3CCOCC3)CCCCC2)cc1,inactive: -0.851%

row,SMILES,activation
1,CSc1ccc(C(=O)NCC2(N3CCOCC3)CCCCC2)cc1,inactive: -4.45%
2,O=c1[nH]c2ccccc2n1C1CCN(C(c2ccccc2OC(F)(F)F)c2nnnn2C2CCCC2)CC1 (stereo unspecified),inactive: -3.97%
3,N#CC1(Nc2ccccc2)CCN(CCc2ccccc2)CC1,inactive: 2.47%
4,CCN1CCC(Nc2ccc(Cl)cc2)CC1,inactive: -2.8%
5,O=C(NCC1(N2CCOCC2)CCCCC1)c1ccccc1,inactive: -2.22%
6,Cc1cc(N(CCCl)CCCl)ccc1C=O,inactive: -5.04%
7,CCCN1CCC(Nc2cc(OC)cc(OC)c2)CC1,inactive: -9.01%
8,O=c1[nH]c2ccccc2n1C1CCN(C(c2ccccc2)c2nnnn2C2CCCC2)CC1 (stereo unspecified),inactive: -1.45%
9,c1ccc(CN2CCC(Nc3ccccc3)CC2)cc1,inactive: 0.278%
10,CN(C)C1(CNC(=O)c2cccc(C#N)c2)CCCCC1,inactive: 2.27%
11,CC(C)(C)n1nnnc1C(c1cccc2ccccc12)N1CCC(n2c(=O)[nH]c3ccccc32)CC1 (stereo unspecified),inactive: -5.48%
12,CC(C)(C)OC(=O)N1CCC(N(C(=O)c2ccccc2)c2ccc(Cl)cc2)CC1,inactive: -2.34%
13,O=C(NCC1(N2CCOCC2)CCCCC1)c1ccc([N+](=O)[O-])cc1,inactive: -0.216%
14,O=C(NCC1(N2CCOCC2)CCCCC1)c1ccccc1[N+](=O)[O-],inactive: -3.36%
15,N#Cc1ccc(C(=O)NCC2(N3CCCCC3)CCCCC2)cc1,inactive: -4.59%
16,CCOC(=O)C(CC)C1=NC(C)(C)Cc2ccccc21.O=[N+]([O-])c1cc([N+](=O)[O-])c(O)c([N+](=O)[O-])c1 (stereo unspecified),inactive: 3.09%
17,N/C(=N\O)c1c(N)no[n+]1[O-],inactive: -5.62%
18,CCOC(=O)N1CCC(Nc2ccc(C)cc2)CC1,inactive: -0.0177%
19,COc1cccc(C(c2nnnn2C(C)(C)C)N2CCC(n3c(=O)[nH]c4ccccc43)CC2)c1OC (stereo unspecified),inactive: -3.07%
20,CCCCn1nnnc1C(c1cccc(OC)c1OC)N1CCC(n2c(=O)[nH]c3ccccc32)CC1 (stereo unspecified),inactive: -3.69%
21,O=c1[nH]c2ccccc2n1C1CCN(C(c2cccs2)c2nnnn2C2CCCC2)CC1 (stereo unspecified),inactive: 0.395%
22,O=C(O)c1cccc(Nc2c([N+](=O)[O-])cc([N+](=O)[O-])cc2[N+](=O)[O-])c1,inactive: -6.98%
